Assay results: patent US20060093578A1, “Method and composition for treating multiple sclerosis” (Kyorin Pharmaceutical Co., Ltd., priority 2004, published 2006)
Entries after “also recorded” stand apart in the source; their conditions may differ.

How the values were obtained:
Type in all cases: cell-based, C57BL/6J mice
[1] = system: IL-12 p70 production by microglia; assay: IL-12 p70 production by LPS + IFNγ-stimulated microglia (ELISA); settings: for IL-12 p70: microglia + LPS (1 μg/mL) + IFNγ (1 ng/mL), mean ± SD (n = 9)
Description: (§1) Samples used for the experiments were prepared as described below. Microglia were isolated from the primary mixed glial cell cultures from newborn C57BL/6J mice on the 14th day, by the “shaking off” method previously described (Suzumura A, Mezitis S G E, Gonatas N, Silberberg D H. “MHC antigen expression on bulk isolated macrophage-microglia from newborn mouse brain: induction of Ia antigen expression by gamma-interferon.” J Neuroimmunol 1987;15:263-278, the contents of which are hereby incorporated by reference in their entirety); the purity of the cultures was 97% to 100% as determined by immunostaining for the Fc receptor. The cultures were maintained with Dulbecco's modified Eagle's minimum essential medium supplemented with 10% fetal calf serum, 5 μg/ml bovine insulin, and 0.2% glucose.
(§2) The effects of IFNβ on cytokines and NO production were evaluated in the flooding manner. Microglia and peritoneal macrophages were cultured in 24-well culture plates at a concentration of 1×10^6/ml with or without 1 μg/ml LPS (lipopolysaccharide) for 24 hours in the presence of a graded concentration of IFNβ. The supernatant was then collected and stored at −70° C. until assessed. From the remaining cells, total RNA was extracted, following the guanidinium thiocyanate method (RNeasy Mini Kit;QIAGEN). The cDNA encoding mouse TNFα, IL-1β, IL-6, iNOS (inducible nitric oxide synthetase), and IL-12, was generated by reverse transcription-polymerase chain reaction (RT-PCR) using Superscript II (INVITROGEN), and Ampli Taq DNA polymerase (APPLIED BIOSYSTEMS) with the specific primers shown in Table 1.
(§3) Cytokine production was measured with an ELISA kit specific for IL1, IL-6, TNFα, and IL-12 p70 (TECHNE Corp. MN). NO production was determined by Griess reaction. Briefly, a 50 μl aliquot of supernatants were mixed with an equal volume of Griess reagent (0.1% N-ethylenediarnine dihydrochloride, 1% sulfanilamide, and 2.5% phosphoric acid) and incubated for 15 minutes at room temperature, and the absorbance was read at 540 nm on a microtiter plate reader. Nitrite concentrations were calculated from a standard curve of NaNO2 (Yoshikawa M, Suzumura A, Tamaru T, et al. “Effects of phosphodiesterase inhibitors on microglia.” Multiple Scler 1999;5: 126-133, the contents of which are hereby incorporated by reference in their entirety).
In addition, the direct effects of PDEIs on microglia were investigated in the absence of IFNβ. As shown previously, microglia produced IL-12 p70 upon response to LPS and IFNγ stimulation (Suzumura A, Mezitis S G E, Gonatas N, Silberberg D H. “MHC antigen expression on bulk isolated macrophage-microglia from newborn mouse brain: induction of Ia antigen expression by gamma-interferon.” J Neuroimmunol 1987;15:263-278). […]

microglia [2] = assay: Cytokine production (TNFα, IL-1β, IL-6, IL-10) by microglia (ELISA)
Description: as §1
The effects of IFNβ on cytokines and NO production were evaluated in the flooding manner. Microglia and peritoneal macrophages were cultured in 24-well culture plates at a concentration of 1×10^6/ml with or without 1 μg/ml LPS (lipopolysaccharide) for 24 hours in the presence of a graded concentration of IFNβ. The supernatant was then collected and stored at −70° C. until assessed. From the remaining cells, total RNA was extracted, following the guanidinium thiocyanate method (RNeasy Mini Kit;QIAGEN). […]
as §3
In order to evaluate candidate agents that protect against IFNβ-induced elevation of inflammatory products, the effects of cAMP-elevating agents were investigated. In particular, the phosphodiesterase inhibitor (PDEI) ibudilast was evaluated by culturing microglia at a concentration of 1×10^6/ml in 24-well culture plates with 10^4 U/ml IFNβ and/or 1 μg/ml LPS, in the presence of 1-100 μM ibudilast for 24 hours. Supernatants were then collected and assessed for the cytokine contents by ELISA and for NO by Griess method. […]

microglia [3] = assay: NO production by microglia (Griess reaction); settings: non-stimulated or LPS-stimulated microglia (FIG. 2D)
Description: Samples used for the experiments were prepared as described below. Microglia were isolated from the primary mixed glial cell cultures from newborn C57BL/6J mice on the 14th day, by the “shaking off” method previously described (Suzumura A, Mezitis S G E, Gonatas N, Silberberg D H. “MHC antigen expression on bulk isolated macrophage-microglia from newborn mouse brain: induction of Ia antigen expression by gamma-interferon.” J Neuroimmunol 1987;15:263-278, the contents of which are hereby incorporated by reference in their entirety); the purity of the cultures was 97% to 100% as determined by immunostaining for the Fc receptor. […]
The effects of IFNβ on cytokines and NO production were evaluated in the flooding manner. […] The supernatant was then collected and stored at −70° C. until assessed. […]
Cytokine production was measured with an ELISA kit specific for IL1, IL-6, TNFα, and IL-12 p70 (TECHNE Corp. MN). NO production was determined by Griess reaction. Briefly, a 50 μl aliquot of supernatants were mixed with an equal volume of Griess reagent (0.1% N-ethylenediarnine dihydrochloride, 1% sulfanilamide, and 2.5% phosphoric acid) and incubated for 15 minutes at room temperature, and the absorbance was read at 540 nm on a microtiter plate reader. […]

microglia [4] = assay: mRNA expression of inflammatory mediators and IL-12 p35/p40 in microglia (RT-PCR)
Description: as §1, §2

microglia [5] = assay: mRNA expression of class II MHC antigen and costimulatory molecules in IFNγ-treated microglia (RT-PCR)
Description: as §1
The effects of IFNβ on mRNA expression of class II MHC antigens and costimulatory molecules were evaluated in the following manner. Microglia at a concentration of 1×10^6 /ml were plated on a well of a 24 well plate and stimulated with 1 ng/ml INFγ in the presence of a graded dose of IFNβ for 24 hours, then the cells were harvested to extract RNA as described hereinabove. The mRNA expression for class II MHC antigen, B7-1, B7-2, and ICAM-1 were examined by RT-PCR, with the specific primers as recited in Table 1 above.

[6] = system: MOG 35-55-specific T cells; assay: Cytokine production / Th1 differentiation of MOG 35-55-specific T cells with microglia as antigen presenting cells (ELISA)
Description: To assess the effects on Th1 differentiation, the following techniques were employed. Myelin oligodendrocyte glycoprotein (MOG) 35-55-specific T cells were prepared from C57BL/6J mice immunized with 200 μg/head of MOG 35-55 (kindly provided by Dr. H. Offner, Oregon Health and Science University, Portland, Oreg.) in Freund's complete adjuvant containing 300 μg/head Mycobacterium tuberculosis H37RA (DIFCO Lab., Detroit, Mich.). Ten days later, lymph node cells were harvested, and 8×10^6 cells were cultured with 20 μg/ml MOG 35-55 for 48 hours. After expanded in the presence of IL-2 for 7 days, MOG 35-55-specific T cells were used for following experiments. Microglia treated with 1 ng/ml IFNγ for 24 hr in the presence of a graded dose of IFNβ (0-10^4 U/ml) were used as antigen presenting cells after washed 3 times with PBS. Also, 1×10^6/ml MOG 35-55specific T cells were cultured on the above-treated microglia with or without 20 μg/ml MOG 35-55. Supernatants were collected at 48 hours and assessed for the contents of IFNγ, IL-4 and IL-10 by ELISA kits (BD BIOSCIENCES, San Diego, Calif.).

peritoneal macrophages = assay: Production of inflammatory mediators by peritoneal macrophages (ELISA, Griess)
Description: Peritoneal macrophages were collected from the same strain of mice that were intraperitoneally injected with thioglycolate 48 hours prior to collection. Macrophages were cultured with the same medium as microglia.
as §2, §3

[7] = LPS-stimulated, ELISA (FIG. 2A-2C)
[8] = LPS-stimulated microglia, dose-dependent (FIG. 3A)
[9] = IFNγ-treated microglia (FIG. 5)
[10] = IFNβ added with IFNγ to microglia used as APC (FIG. 6B, 6D)
[11] = IFNβ added with IFNγ to microglia used as APC, MOG 35-55 (FIG. 6A, 6C)
[12] = LPS-stimulated macrophages (FIG. 7A-7D)

Interferon-β [IFNβ]
IL-12 production by microglia ([1]; LPS and IFNγ stimulation, graded doses (FIG. 1, FIG. 9A)): dose-dependently suppressed | IL-12 p70 ([1]; IFNβ 10^2 U/mL): 78 ± 18 pg/mL | IL-12 p70 ([1]; IFNβ 10^3 U/mL): 21 ± 12 pg/mL | IL-12 p70 ([1]; IFNβ 10^4 U/mL): 23 ± 4 pg/mL | release of IL-1β from microglia (microglia [2]; [7]): dose-dependently increased | release of IL-6 from microglia (microglia [2]; [7]): dose-dependently increased | release of TNFα from microglia (microglia [2]; [7]): dose-dependently increased | production of anti-inflammatory cytokine IL-10 (microglia [2]; microglia, ELISA for secreted protein and RT-PCR for mRNA (FIG. 4)): dose-dependently increased | production of NO (microglia [3]): increased | expression of p35 and p40 mRNA (microglia [4]; LPS and IFNγ-treated microglia (FIG. 1, FIG. 10)): dose-dependently suppressed | mRNA expression for IL-1β (microglia [4]; LPS-stimulated microglia, changes were mild (FIG. 3A)): up-regulated | mRNA expression for IL-6 (microglia [4]; [8]): up-regulated | mRNA expression for TNFα (microglia [4]; [8]): up-regulated | mRNA expression for iNOS (microglia [4]; [8]): up-regulated | expression of TNFα (microglia [4]; non-stimulated microglia (FIG. 3B)): enhanced | class II MHC mRNA expression induced by IFNγ (microglia [5]; IFNβ at 10^4 and 10^3 U/ml (FIG. 5)): suppressed | expression of B7-1 (microglia [5]; [9]): slightly suppressed | mRNA expression for B7-2 (microglia [5]; [9]): no significant effect | mRNA expression for ICAM-1 (microglia [5]; [9]): no significant effect | changes of production of IL-4 by MOG-specific T cells [6, 10]: mild | changes of production of IL-10 by MOG-specific T cells [6, 10]: mild | IFNγ produced by MOG-specific T cells [6, 11]: decrease | IL-2 produced by MOG-specific T cells [6, 11]: decrease | differentiation of MOG 35-55-specific T cells into Th1 phenotype ([6]; MOG 35-55 presented by microglia): significantly suppressed; also recorded: did not directly block | effects on cytokine production by MOG-specific T cells ([6]; MOG 35-55 presented by microglia (FIG. 11)): not remarkable | IL-1β production (peritoneal macrophages; [12]): dose-dependently increased | IL-6 production (peritoneal macrophages; [12]): dose-dependently increased | NO production (peritoneal macrophages; [12]): dose-dependently increased | TNFα production (peritoneal macrophages; [12]): dose-dependently increased | NO production (peritoneal macrophages; unstimulated macrophages (FIG. 7D)): dose-dependently increased
